Experimental data reported in patent EP0706514B1, “COMPOUNDS AND METHODS FOR INHIBITION OF HIV AND RELATED VIRUSES” (MEDIVIR AB, priority 1993, dated 1995).

Biological target: T1, recombinant HIV-RT (Human immunodeficiency virus type 1 group M subtype B, UniProt P04585)
T1 construct: recombinant HIV-RT (diluted in virus disruption buffer to give 200.000 cpm)
Assay: biochemical
Details: Test I
Protocol: 100 mM Tris-HCl pH 7.6, 100 mM KCl, 4 mM MgCl2, 4 mM DTT, 275 mg/ml BSA, 0.5 mg (rA)n(dT)12-18 and 0.3 mM ^3H-=dTTP (specific activity 18.000 cpm/mol). After 60 minutess of incubation 40 ml in duplicate were spotted on paper discs and washed in 5% TCA. After rinsing the paper discs in ethanol they were dried and counted in scintillation fluid.

Compound: CCOc1ccc(F)c(CCNC(=O)Nc2ccc(Br)cn2)c1Cl
- inhibition at 0.01 µg/mL: 82%
- % inhibition (0.01 µg/ml): 83%
